Molecular target: recombinant H-Ras-CVLL (UniProt P01112)

For geranylgeranyltransferase I (GGTase I), the “Km (in vitro GGTase I activity assay, transfer of [3H]geranylgeranyl from [3H]GGPP to H-Ras-CVLL)” value was “The Km and Vmax values obtained for H-Ras-CVLL were 2.8 µM and 0.07 pmol/min, respectively”.
